Settings: Hansen-Parameter, δt^2 = δd^2 + δp^2 + δh^2
Text: Damit die hydrophobe Verbindung effektiv verkapselt werden kann, ist es erforderlich, dass die Verbindung ausreichend hydrophob ist, so dass sie nicht mit dem aus den Monomeren gebildeten Polymer derart interagiert, dass sie dieses übermäßig quellen und dadurch für die Verbindung stärker permeabel werden lässt. Es ist daher bevorzugt, dass die mindestens eine hydrophobe Verbindung einen Hansen-Parameter δt von weniger als 20, insbesondere weniger als 19 hat; und/oder einen Hansen-Parameter δh von weniger als 10, insbesondere weniger als 6 hat.
Der Hansen-Parameter ist ein in der Polymerchemie weit verbreiteter Parameter zum Vergleich der Löslichkeit bzw. Mischbarkeit von verschiedenen Substanzen. Dieser Parameter wurde von Charles Hansen entwickelt, um die Löslichkeit eines Materials in einem anderen vorherzusagen. Dabei wird die Kohäsionsenergie einer Flüssigkeit betrachtet, welche in mindestens drei verschiedene Kräfte eingeteilt werden kann: (a) Dispersionskräfte zwischen den Molekülen δd, (b) Dipolare intermolekulare Kräfte zwischen den Molekülen δp und (c) Wasserstoffbrückenbindungen zwischen den Molekülen δh. Diese drei Parameter können zu einem Parameter δt zusammengefasst werden nach der Formel δt^2 = δd^2 + δp^2 + δh^2. Je ähnlicher der Hansen-Parameter von unterschiedlichen Materialien ist, desto besser sind diese ineinander mischbar. […]

## Hexenol
  δt: 21,92
